The values below are quoted from earlier work in publication PMC8583936, “Machine Learning Assisted Approach for Finding Novel High Activity Agonists of Human Ectopic Olfactory Receptors” (International Journal of Molecular Sciences, 2021).

The chains behind the UniProt entries cited, without tags or fusion partners. Where a name states a change or a piece, a line headed by the entry shows the natural chain unless it says otherwise.
UniProt Q9P1Q5: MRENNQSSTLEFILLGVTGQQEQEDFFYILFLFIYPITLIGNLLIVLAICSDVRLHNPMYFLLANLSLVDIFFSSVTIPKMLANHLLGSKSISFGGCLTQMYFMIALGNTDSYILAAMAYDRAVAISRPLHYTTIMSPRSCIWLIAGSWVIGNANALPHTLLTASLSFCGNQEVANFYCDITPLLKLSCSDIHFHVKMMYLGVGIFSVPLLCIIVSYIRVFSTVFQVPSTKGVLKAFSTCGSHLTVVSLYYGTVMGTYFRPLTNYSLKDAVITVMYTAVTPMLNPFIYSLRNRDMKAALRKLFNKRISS

The target in the data set is OR1A1 (Homo sapiens, UniProt Q9P1Q5). The note with it: Table S1; ref Supplement references [1]-[9]; cited from earlier work.

Turning to P-Tolyl isobutyrate, the “Class (agonist / non-agonist / conflicting info.) for OR1A1” value was “Agonist”.

Musk xylol: the “Class (agonist / non-agonist / conflicting info.) for OR1A1” value is “Agonist”.
